Source: patent US20190010232A1 (Eli Lilly, published 2019)

Protein sequences, listed by entry. Tags and fused reporters are not part of them. Residues count along the entry.
UniProt Q15116, 25-288 limits assumed: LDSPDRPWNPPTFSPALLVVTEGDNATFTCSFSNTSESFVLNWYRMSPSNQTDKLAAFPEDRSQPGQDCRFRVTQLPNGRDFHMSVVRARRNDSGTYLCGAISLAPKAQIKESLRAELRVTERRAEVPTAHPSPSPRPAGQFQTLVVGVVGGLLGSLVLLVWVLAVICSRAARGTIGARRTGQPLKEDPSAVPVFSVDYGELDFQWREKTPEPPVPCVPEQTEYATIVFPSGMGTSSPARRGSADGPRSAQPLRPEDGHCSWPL
UniProt Q15116, 25-167 limits assumed: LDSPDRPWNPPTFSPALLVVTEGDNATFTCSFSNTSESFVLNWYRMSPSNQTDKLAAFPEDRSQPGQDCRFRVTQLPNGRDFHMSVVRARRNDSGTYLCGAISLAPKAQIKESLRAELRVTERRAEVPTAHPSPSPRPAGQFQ
UniProt Q9NZQ7, 19-290 limits assumed: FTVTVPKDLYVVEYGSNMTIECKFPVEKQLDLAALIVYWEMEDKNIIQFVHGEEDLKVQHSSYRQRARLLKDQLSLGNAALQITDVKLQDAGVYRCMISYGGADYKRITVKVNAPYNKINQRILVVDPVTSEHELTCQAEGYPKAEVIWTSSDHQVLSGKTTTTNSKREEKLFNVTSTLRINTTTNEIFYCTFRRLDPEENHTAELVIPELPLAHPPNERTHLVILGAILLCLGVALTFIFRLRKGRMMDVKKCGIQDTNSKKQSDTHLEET
UniProt Q9NZQ7, 19-239 limits assumed: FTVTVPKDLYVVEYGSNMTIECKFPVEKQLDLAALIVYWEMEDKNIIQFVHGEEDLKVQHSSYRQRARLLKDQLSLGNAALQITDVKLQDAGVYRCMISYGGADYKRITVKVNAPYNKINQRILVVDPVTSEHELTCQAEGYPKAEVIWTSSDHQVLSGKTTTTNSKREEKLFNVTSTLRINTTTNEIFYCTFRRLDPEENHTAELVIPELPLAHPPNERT

What was measured:
PD-1 expressed on cells = PD-1 expressed on cells (UniProt Q15116 25-288, limits assumed); assay: cell-based or functional assay
PD-L1 expressed on cells = PD-L1 expressed on cells (UniProt Q9NZQ7 19-290, limits assumed); assay: cell-based or functional assay
[1] = target: T1, human PD-L1-Fc (R&D Systems, cat#156-B7) (human, UniProt Q9NZQ7 19-239); assay: blocking ELISA, plate coated with B7-1-Fc; inhibition of PD-L1 binding to B7-1
T1 construct: Bought reagent; also called PD-L1 ligand; not shown: Fc part of the bought fusion protein
Description: Similarly, a PD-L1/B7-1 blocking assay may be performed by using plates coated with 1 pg/ml B7-1-Fc (R&D Systems, cat#140-B1-100).

[2] = target: T2, human PD-1-Fc (R&D Systems, cat. #1086-PD) (human, UniProt Q15116 25-167, biotinylated in the blocking assay of Example 4 (sites not given)); assay: blocking ELISA, biotinylated PD-1-Fc mixed with antibody, plate coated with PD-L2-Fc, streptavidin-HRP
T2 construct: Bought reagent; it is treated here as the same molecule, biotinylated; also called biotinylated PD-1-Fc fusion protein; PD-1 receptor; not shown: Fc part of the bought fusion protein

[3] = target: T2, human PD-1-Fc (R&D Systems, cat. …); assay: ELISA, plate coated with human PD-1-Fc, detection with anti-human IgG F(ab')2-HRP
[4] = target: T1, human PD-L1-Fc (R&D Systems, cat#156-B7); assay: ELISA, plate coated with human PD-L1-Fc, detection with anti-human IgG F(ab')2-HRP

B1: Antibody v3.2 (bispecific antibody, human IgG1, kappa, lambda, L234A L235A)
heavy 1: not shown
light 1: not shown
heavy 2: not shown
light 2: DIQMTQSPSSVSASVGDRVTITCRASQGISSWLAWYQQKPGKAPKLLISAASSLQSGVPSRFSGSGSGTDFTLTISSLQPEDFATYYCQQANHLPFTFGGGTKVEIKRTVAAPSVFIFPPSDEQLKSGTARVGCLLNNFYPREAKVQWKVDNALQSGNSQESVTEQDSKDSTYSLRSTLTLSKADYEKHKVYACEVTHQGLSSPVTKSFNRGEC
PD-1 expressed on cells
  EC50, PD-1/NFAT Reporter Jurkat T cell assay with PD-L1/PD-L2 double positive T cell activator CHO cells: 0.181 nM
  EC50, PD-1/NFAT Reporter Jurkat T cell assay with PD-L1 positive T cell activator CHO cells: 0.12 nM
  double positive events (CFSE+/CTDR+) by flow cytometry, cell bridging: ≤ 4 fold
PD-L1 expressed on cells
  EC50, PD-1/NFAT Reporter Jurkat T cell assay with PD-L1 positive T cell activator CHO cells: 0.12 nM
  double positive events (CFSE+/CTDR+) by flow cytometry, cell bridging: ≤ 4 fold
[1]
  IC50: 0.75 nM
[2]
  IC50: 2.27 nM
[3]
  EC50: 0.0802 nM
[4]
  EC50: 0.455 nM
